Protein sequences, listed by entry. Tags and fused reporters are not part of them. Residues count along the entry.
UniProt P28335, 33-458 limits assumed: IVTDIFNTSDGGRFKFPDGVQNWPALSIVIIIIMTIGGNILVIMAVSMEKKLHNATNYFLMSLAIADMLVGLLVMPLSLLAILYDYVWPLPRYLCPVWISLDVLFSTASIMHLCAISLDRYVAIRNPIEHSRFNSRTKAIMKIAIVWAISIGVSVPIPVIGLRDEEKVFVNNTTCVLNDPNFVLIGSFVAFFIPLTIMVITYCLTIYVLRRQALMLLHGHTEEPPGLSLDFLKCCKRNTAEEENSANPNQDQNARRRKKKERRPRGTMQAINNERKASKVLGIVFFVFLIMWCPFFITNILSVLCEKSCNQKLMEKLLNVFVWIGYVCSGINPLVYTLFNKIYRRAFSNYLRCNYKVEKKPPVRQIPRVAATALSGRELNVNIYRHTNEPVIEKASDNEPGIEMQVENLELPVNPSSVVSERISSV
UniProt P14842, whole entry: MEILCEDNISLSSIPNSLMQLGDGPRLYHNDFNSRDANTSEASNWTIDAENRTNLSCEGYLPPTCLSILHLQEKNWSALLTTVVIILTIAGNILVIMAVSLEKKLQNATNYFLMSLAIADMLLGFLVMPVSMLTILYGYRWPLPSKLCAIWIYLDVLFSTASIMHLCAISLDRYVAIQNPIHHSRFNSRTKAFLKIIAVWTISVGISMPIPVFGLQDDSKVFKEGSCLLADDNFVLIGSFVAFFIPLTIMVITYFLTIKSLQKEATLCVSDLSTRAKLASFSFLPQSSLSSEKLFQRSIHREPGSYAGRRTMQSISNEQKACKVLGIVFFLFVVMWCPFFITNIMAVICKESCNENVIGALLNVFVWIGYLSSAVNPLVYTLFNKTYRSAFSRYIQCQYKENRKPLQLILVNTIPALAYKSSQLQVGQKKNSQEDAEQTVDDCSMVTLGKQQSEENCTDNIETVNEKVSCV
UniProt P41595, whole entry: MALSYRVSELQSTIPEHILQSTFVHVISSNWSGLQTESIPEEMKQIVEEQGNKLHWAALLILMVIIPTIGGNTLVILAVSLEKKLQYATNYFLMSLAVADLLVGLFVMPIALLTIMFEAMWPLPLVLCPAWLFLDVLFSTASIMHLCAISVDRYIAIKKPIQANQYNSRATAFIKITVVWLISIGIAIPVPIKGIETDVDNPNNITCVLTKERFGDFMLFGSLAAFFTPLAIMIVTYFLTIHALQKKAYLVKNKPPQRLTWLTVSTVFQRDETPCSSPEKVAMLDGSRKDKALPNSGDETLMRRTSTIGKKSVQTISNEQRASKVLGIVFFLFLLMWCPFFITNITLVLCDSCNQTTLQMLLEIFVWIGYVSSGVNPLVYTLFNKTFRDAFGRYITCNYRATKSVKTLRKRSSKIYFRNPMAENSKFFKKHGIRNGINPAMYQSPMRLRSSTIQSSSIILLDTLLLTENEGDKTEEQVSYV

According to patent publication US7507732B2, “Cyclopentapyridine and tetrahydroquinoline derivatives” (Pfizer Inc., priority 2005, dated 2009):

How the values were obtained:
human 5HT2c receptor = human 5HT2c receptor (Homo sapiens, UniProt P28335); assay: 5HT2c Binding Procedure (competition binding against 3H-5HT, membranes of transfected Swiss 3T3 mouse cells); settings: read-out: 2cKi
Method: Affinity of compounds at the serotonin 5HT2c binding site is determined by competition binding in Swiss 3T3 mouse cells (available from the American Type Culture Collection (ATCC), Manassas, Va.) transfected with the human 5HT2c receptor against ^3H-5HT.

rat 5HT2a receptor = rat 5HT2a receptor (Rattus norvegicus, UniProt P14842); assay: 5HT2a Binding Procedure (competition binding using 125I-DOI, membranes of transfected NIH 3T3 mouse cells); settings: read-out: 2aKi
Method: Affinity of compounds at the serotonin 5HT2a binding site is determined by competition binding in NIH 3T3 mouse cells transfected with the rat 5HT2a receptor using 125I-DOI.

human 5HT2b receptor = human 5HT2b receptor (Homo sapiens, UniProt P41595); assay: 5HT2b Binding Procedure (competition binding with 3H-LSD, CHO cell membranes); settings: read-out: 2bKi

Fc1c(Cl)cccc1O[C@H]1CCCc2cc(Cl)c(N3CCNCC3)nc21
Ki (human 5HT2c receptor): 5.82 nM
Ki (rat 5HT2a receptor): 7.11 nM
Ki (human 5HT2b receptor): 12 nM
